Where “and” joins values, the source holds several entries; their conditions need not be identical. Equal entries are not always repeated. The list shows a part of the results, in another mix than the full data. Calls of active or inactive are those of the source. Rule as the data show it: active = z-score above about 3 (passing the limit was not always enough); inactive = the rest.

Amino acid sequences for entries named in this document (tags omitted). A change or cut given only in a name is not applied to a line headed by its entry.
UniProt Q9UPY3: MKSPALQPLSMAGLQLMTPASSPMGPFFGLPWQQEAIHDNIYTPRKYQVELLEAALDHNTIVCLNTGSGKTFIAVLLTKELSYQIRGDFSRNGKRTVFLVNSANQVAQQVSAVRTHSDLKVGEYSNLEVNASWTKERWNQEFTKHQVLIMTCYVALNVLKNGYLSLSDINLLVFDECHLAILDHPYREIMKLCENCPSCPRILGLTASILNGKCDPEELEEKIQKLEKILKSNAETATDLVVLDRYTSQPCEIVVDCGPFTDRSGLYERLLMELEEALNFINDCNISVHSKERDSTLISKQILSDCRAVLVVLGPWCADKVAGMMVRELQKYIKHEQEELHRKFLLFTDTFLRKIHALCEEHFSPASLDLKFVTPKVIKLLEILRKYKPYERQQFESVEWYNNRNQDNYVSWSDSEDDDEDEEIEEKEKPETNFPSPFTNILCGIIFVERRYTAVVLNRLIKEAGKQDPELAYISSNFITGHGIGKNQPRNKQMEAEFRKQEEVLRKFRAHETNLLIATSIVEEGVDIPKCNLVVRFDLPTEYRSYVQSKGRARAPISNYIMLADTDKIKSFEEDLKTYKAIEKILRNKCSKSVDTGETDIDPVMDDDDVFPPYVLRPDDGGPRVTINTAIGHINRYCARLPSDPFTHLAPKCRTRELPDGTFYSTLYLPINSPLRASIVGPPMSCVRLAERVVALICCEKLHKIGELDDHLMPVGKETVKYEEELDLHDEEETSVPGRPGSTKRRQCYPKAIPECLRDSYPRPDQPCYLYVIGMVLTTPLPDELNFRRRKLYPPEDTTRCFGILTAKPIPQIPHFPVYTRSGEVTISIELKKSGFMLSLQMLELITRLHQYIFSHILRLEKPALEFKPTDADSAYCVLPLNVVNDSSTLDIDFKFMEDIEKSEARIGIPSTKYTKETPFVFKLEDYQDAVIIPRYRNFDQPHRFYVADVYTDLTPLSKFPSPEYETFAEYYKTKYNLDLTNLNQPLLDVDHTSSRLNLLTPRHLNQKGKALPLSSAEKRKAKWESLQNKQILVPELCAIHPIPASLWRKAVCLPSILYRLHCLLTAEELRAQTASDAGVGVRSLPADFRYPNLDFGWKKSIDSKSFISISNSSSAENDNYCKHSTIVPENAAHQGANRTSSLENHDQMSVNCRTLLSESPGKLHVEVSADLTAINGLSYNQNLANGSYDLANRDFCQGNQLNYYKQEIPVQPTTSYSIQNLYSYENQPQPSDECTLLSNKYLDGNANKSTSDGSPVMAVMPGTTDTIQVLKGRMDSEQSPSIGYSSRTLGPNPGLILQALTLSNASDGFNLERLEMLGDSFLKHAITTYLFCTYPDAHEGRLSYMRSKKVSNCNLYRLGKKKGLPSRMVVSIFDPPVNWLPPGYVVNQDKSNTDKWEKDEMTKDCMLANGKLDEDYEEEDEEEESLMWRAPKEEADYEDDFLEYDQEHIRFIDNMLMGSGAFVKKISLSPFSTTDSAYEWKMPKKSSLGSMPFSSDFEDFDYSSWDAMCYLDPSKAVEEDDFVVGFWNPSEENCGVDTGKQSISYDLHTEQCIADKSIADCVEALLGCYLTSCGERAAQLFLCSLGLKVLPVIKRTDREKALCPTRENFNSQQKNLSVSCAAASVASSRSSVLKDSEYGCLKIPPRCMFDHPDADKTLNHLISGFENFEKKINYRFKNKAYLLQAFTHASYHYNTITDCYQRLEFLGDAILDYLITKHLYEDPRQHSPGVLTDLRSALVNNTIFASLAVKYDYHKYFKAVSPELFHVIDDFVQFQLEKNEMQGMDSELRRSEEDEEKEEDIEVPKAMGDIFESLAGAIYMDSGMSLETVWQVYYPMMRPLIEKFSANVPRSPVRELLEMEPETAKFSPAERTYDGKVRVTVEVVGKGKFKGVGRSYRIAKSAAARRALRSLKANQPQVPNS

The assay addresses Endoribonuclease Dicer (Homo sapiens) (UniProt Q9UPY3). The assay is described as follows: inhibitors of Dicer pre-microRNA processing, primary screen, biochemical, cat-ELCCA, chemiluminescence (AID 1347074).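 Also: plate controls were vehicle for no effect and no enzyme for full effect; higher signal means more uncleaved substrate so more Dicer inhibition.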 As to conditions: cat-ELCCA pre-miR-21 Dicer processing, at 25 µM, stronger effect = higher value.
Regarding `CN(C(=O)Cc1ccc(Cl)c(Cl)c1)[C@@H]1CCCC[C@@H]1N1CCCC1`, the z-score is inactive: 0.69.
For `O=C(OC1CN2CCC1CC2)c1ccccc1` (stereo not drawn) the value was inactive: -0.17.
For `CN(C)C(=O)Oc1noc2ccccc12` the value was inactive: 0.33; for `O=C(CCc1ccccc1)OC1CN2CCC1CC2` (stereo not drawn), inactive: 2.51.
For `CN(C(=O)Cc1ccc(Cl)c(Cl)c1)[C@H]1CCCC[C@@H]1N1CCCC1` the value was inactive: -2.91 and inactive: 0.07; for `O=C(COc1ccc(F)cc1)OC1CN2CCC1CC2` (stereo not drawn), inactive: -0.63.
On to `O=C(OC1CN2CCC1CC2)c1cccc([N+](=O)[O-])c1` (stereo not drawn), for which the z-score was inactive: 1.76.
For the compound `O=C(COc1ccccc1)OC1CN2CCC1CC2` (stereo not drawn), the z-score was inactive: 0.37.
The result for `BrC1CSc2nc3ccccc3n2C1c1ccccc1` (stereo not drawn) reads inactive: -1.07; that for `NC(=O)Nc1ccc([As](=O)(O)O)cc1`, inactive: 0.28.
For `CN(C(=O)Cc1ccccc1)[C@@H]1CC[C@]2(CCCO2)C[C@H]1N1CCCC1` the value was inactive: -1.02.
The result for `CN(C(=O)Cc1ccc(Cl)c(Cl)c1)[C@@H]1CC[C@]2(CCCO2)C[C@H]1N1CCCC1` reads inactive: -0.48; that for `O=C(OC1CN2CCC1CC2)c1ccc(Cl)cc1` (stereo not drawn), inactive: 0.39.

For the origin of these results see PubChem BioAssay AID1347074 (Center for Chemical Genomics, University of Michigan, 2019).
